Values of other authors in article PMC10472371, “Discovery of E2730, a novel selective uncompetitive GAT1 inhibitor, as a candidate for anti‐seizure medication” (Epilepsia Open, 2023).
Marks after values point to notes of the source that are not given here.

Tested on: ddY mice
Settings: ref Levy et al.[39]; cited from earlier work

Question: With CCCC(CCC)C(=O)O [Valproate, valproate] as the compound, how does the “TD50 (95% CI) in mouse rotarod test” value read?
Answer: 398 ^b mg/kg
